From US20230181570A1, “Transdermal Formulation Containing Apomorphine” (MEDRX CO., LTD., priority 2020, published 2023)

Test: Study of the solubility of apomorphine hydrochloride in various solvents

apomorphine hydrochloride solution able to be prepared (1,3-butanediol mixed with propylene carbonate at a weight ratio of 5:1): 10 % by weight
apomorphine hydrochloride solution able to be prepared (concentrated glycerin (99%) mixed with propylene carbonate at a weight ratio of 5:1): 10 % by weight
Structure (SMILES): CN1CCc2cccc3c2[C@H]1Cc1ccc(O)c(O)c1-3 [apomorphine hydrochloride]

Structures can show the parent of a compound that is named as a salt.
